Tests used:
[1] = system: adjuvant arthritis (Mycobacterium tuberculosis in paraffin oil, hind paw); experiment: Anti-inflammatory activity (adjuvant arthritis), hind paw volume; conditions: 1 mg/kg p.o. once daily for 7 days (days 14-20), paw volume on day 21
[2] = molecular target: Cyclooxygenase-1 (COX-1) (Homo sapiens, UniProt P23219); experiment: Inhibition of cyclooxygenase-1 (COX-1) activity in human platelets (thromboxane B2 ELISA); assay type: cell-based; conditions: read-out: COX-1 (μM), results expressed as IC50 values, 50 μM arachidonic acid, mean of three independent experiments
[3] = molecular target: Cyclooxygenase-2 (COX-2) (Homo sapiens, UniProt P35354); experiment: Inhibition of cyclooxygenase-2 (COX-2) activity in HUV-EC-C cell line (prostaglandin E2 ELISA); assay type: cell-based; conditions: for Ratio COX-1:COX-2: ratio of IC50 COX-1 (platelets) to IC50 COX-2 (HUV-EC-C); for IC50: read-out: COX-2 (μM), results expressed as IC50 values, PMA/TPA-induced HUV-EC-C cells, 50 μM arachidonic acid, mean of three independent experiments

Amino acid sequences for entries named in this document (tags omitted). Residues count along the entry.
UniProt P23219, 24-599 limits assumed: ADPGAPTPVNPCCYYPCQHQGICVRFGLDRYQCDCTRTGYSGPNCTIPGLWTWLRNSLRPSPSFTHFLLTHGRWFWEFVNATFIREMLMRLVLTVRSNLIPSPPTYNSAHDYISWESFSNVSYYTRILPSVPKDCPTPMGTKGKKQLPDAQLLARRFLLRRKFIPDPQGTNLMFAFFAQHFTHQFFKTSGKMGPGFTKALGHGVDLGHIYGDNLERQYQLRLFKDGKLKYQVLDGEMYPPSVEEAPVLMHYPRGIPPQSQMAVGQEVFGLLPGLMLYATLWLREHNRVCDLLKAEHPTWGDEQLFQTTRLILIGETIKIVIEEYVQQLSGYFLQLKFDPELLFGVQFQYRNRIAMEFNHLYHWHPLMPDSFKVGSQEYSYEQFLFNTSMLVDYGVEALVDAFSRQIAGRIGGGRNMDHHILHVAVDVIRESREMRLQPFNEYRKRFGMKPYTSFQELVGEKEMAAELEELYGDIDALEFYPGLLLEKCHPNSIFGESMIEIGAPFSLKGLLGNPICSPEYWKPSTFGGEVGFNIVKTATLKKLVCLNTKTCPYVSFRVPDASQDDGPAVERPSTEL
UniProt P35354, 18-604 limits assumed: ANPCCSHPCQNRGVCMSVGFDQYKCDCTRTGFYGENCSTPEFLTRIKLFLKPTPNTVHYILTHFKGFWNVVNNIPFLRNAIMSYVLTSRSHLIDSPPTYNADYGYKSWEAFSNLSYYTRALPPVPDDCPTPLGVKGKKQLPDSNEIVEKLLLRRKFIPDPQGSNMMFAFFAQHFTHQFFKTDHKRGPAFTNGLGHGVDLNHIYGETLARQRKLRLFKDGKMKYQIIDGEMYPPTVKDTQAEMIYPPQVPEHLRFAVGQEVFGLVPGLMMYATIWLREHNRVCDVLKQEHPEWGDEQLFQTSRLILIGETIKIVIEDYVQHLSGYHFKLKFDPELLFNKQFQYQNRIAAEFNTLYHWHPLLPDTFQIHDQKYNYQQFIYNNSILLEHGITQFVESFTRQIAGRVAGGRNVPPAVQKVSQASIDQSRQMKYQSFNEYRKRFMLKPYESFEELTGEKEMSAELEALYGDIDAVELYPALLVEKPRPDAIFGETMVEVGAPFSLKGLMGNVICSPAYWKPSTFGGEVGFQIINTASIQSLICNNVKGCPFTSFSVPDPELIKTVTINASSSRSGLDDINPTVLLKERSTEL

SMILES | % Inhibition (dose, mg/kg) [1] | IC50 [2] | Ratio COX-1:COX-2 [3] | IC50 [3]
NS(=O)(=O)c1ccc(-c2coc(=O)n2-c2ccc(Cl)cc2)cc1 | 62 (1) % | 4.6 µM | – | –
CS(=O)(=O)c1ccc(-c2coc(=O)n2-c2ccc3ccccc3c2)cc1 | – | > 100 µM | >3333 | 0.03 µM
CS(=O)(=O)c1ccc(-c2coc(=O)n2-c2ccc(F)cc2F)cc1 | – | > 100 µM | – | –
CS(=O)(=O)c1ccc(-c2coc(=O)n2-c2ccc(Cl)c(Cl)c2)cc1 | – | 27.9 µM | 3487 | 0.008 µM

From US6869968B1, “2-(3H)-oxazolone derivatives and their use as COX-2 inhibitors” (Allmirall Prodesfarma S.A., priority 1996, dated 2005)
